Tested on: CYP3A
Settings: observed, healthy adults, geometric least squares mean (90% CI)

## Cc1ncc2n1-c1ccc(Cl)cc1C(c1ccccc1F)=NC2 [midazolam]
  midazolam AUCinf ratio with/without risdiplam: 1.08 (0.93–1.26)
  midazolam Cmax ratio with/without risdiplam: 1.16 (1.06–1.28)

From paper PMC9291816 (Clinical Pharmacology and Therapeutics, 2021)
